Molecular target: T1, W741C mutated AR (Homo sapiens, UniProt P10275, W742C)
T1 sequence (P10275 1-920 W742C): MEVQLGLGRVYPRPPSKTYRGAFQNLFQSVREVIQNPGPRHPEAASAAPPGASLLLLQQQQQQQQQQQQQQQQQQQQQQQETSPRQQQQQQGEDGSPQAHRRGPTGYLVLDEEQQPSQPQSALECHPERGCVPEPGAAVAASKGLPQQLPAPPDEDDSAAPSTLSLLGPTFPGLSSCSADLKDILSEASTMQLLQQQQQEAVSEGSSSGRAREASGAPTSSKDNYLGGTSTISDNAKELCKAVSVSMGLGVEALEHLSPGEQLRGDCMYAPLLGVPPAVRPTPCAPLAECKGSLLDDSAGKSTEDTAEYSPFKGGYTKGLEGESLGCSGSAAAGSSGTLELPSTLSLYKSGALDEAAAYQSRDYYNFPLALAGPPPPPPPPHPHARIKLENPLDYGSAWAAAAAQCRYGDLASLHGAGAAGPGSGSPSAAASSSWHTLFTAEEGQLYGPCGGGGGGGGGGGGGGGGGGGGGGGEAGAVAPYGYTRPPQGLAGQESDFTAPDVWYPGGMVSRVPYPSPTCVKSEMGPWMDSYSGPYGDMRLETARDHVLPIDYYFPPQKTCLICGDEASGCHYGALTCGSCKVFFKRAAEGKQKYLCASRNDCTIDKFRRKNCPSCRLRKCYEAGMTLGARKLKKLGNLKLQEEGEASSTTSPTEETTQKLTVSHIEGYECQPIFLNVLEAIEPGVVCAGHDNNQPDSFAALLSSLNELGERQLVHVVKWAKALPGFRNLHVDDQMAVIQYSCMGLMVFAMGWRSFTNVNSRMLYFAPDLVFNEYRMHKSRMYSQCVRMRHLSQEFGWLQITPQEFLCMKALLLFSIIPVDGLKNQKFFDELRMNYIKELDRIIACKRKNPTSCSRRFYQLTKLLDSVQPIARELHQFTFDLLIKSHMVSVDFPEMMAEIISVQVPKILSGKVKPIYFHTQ
Assay: Luciferase assay for AR transactivation, W741C AR, PC-3 cells
Assay type: cell-based
Parameters: Antiandrogenic activity evaluated by luciferase assay in PC-3 cells W741C: key to the marks not given beside the values
Settings: 0.1 nM DHT; for suppression of DHT-induced transactivation of W741C AR: test compound 0.1-1 μM, PC-3 cells; for Antiandrogenic activity evaluated by luciferase assay in PC-3 cells W741C: test compound 1 μM

Row | suppression of DHT-induced transactivation of W741C AR | Antiandrogenic activity evaluated by luciferase assay in PC-3 cells W741C | Structure (SMILES)
1 | dose-dependent activity | – | CC1=C(/C=C/C(=O)/C=C/c2cccc(C(F)(F)F)c2)C(C)(C)CCC1O (racemic) [Compound B25]
2 | – | ++ | CC(C)(O)C(=O)Nc1ccc([N+](=O)[O-])c(C(F)(F)F)c1 [OHF, hydroxyflutamide, reference compound]
3 | effective | ++ | CC1(C)CCC(O)C=C1/C=C/C(=O)/C=C/c1cnc2ccccc2c1 (stereo not drawn) [Compound B95]

Row | Structure (SMILES) | suppression of DHT-induced transactivation of W741C AR | Antiandrogenic activity evaluated by luciferase assay in PC-3 cells W741C
4 | CC1(C)CCC(O)C=C1/C=C/C(=O)/C=C/c1csc2ccccc12 (stereo not drawn) [Compound B92] | pure antagonists | ++

From patent publication US8470889B2 (TRT Pharma Inc., priority 2008, dated 2013)
